Reference: PMC7723054
The other results are listed elsewhere or left out.

T1: LIN28A (human?, UniProt Q9H9Z2 1-209)
T1 sequence: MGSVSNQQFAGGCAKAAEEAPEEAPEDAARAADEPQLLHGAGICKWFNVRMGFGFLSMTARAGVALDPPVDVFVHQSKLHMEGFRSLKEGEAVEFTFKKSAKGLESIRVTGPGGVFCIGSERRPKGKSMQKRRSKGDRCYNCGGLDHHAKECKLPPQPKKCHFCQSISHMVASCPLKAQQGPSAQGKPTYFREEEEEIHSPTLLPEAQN

T2: CIRBP (Homo sapiens, UniProt Q14011 1-172)
T2 sequence: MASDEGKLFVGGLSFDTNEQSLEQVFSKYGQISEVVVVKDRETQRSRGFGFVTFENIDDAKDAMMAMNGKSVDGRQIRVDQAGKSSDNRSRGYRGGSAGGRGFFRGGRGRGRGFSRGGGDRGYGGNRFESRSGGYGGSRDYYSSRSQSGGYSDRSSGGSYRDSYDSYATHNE

T3: DHX36 (Homo sapiens, UniProt Q9H2U1 1-1008)
T3 sequence: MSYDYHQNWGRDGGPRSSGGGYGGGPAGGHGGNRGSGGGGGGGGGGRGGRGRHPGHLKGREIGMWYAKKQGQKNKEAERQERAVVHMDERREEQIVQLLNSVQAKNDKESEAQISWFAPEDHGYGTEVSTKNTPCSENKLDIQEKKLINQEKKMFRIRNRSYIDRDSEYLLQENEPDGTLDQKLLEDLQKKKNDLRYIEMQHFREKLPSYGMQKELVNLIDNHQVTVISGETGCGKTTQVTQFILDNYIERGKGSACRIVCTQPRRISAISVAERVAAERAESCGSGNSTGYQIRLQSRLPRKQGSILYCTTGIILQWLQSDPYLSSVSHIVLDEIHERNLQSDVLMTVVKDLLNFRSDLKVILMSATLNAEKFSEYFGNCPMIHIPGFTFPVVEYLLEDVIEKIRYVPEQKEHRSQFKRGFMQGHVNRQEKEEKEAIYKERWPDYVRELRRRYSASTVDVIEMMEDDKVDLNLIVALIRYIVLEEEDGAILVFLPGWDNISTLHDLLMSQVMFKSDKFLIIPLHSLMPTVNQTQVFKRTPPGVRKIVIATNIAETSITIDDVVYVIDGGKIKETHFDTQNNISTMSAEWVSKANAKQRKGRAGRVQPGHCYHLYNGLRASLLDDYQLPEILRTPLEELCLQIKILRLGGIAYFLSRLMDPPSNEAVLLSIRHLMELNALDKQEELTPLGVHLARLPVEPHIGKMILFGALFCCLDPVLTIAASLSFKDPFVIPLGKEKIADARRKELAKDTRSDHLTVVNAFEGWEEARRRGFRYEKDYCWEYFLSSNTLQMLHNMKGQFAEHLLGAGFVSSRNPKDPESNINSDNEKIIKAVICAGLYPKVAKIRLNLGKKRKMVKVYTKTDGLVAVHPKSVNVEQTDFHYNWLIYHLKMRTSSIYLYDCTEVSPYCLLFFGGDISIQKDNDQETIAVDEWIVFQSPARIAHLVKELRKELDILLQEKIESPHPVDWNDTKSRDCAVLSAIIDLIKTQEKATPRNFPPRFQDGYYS

B1: hsa-mir-575 (structured_RNA)
RNA: GGGACAAAGUCACGUGCCCGUUUUCGAUGGUGUACGAAGUUUCAGCGCUUAUGUCAUGACCUUGGGCUACUCAGGCUGUCUGCACAAUGAGCGCUGAAGCUUCGUGCAC
B2: hsa-mir-1911 (structured_RNA)
RNA: GGGAACUGGUAACACAGCCGUUUACAUAGGUGUACGAAGUUUCAGCGUUGGGCAUCCACAGUCUCCCACCGCUGAAGCUUCGUGCAC
B3: hsa-mir-617 (structured_RNA)
RNA: GGGAAAGGCGUUAUUACGUAAGGUCCCAGGUGUACGAAGUUUCAGCUGGCCAUUUCCUACCAGCUGAAGCUUCGUGCAC
B4: hsa-mir-4307 (structured_RNA)
RNA: GGGAAAAGCAUGGACUCCCCGAGACACAGGUGUACGAAGUUUCAGCAGUUUGUGAUAAUGUUUGUCUAUAUAGUUAUGAAUGGCUGAAGCUUCGUGCAC
B5: hsa-mir-4525 (structured_RNA)
RNA: GGGAACGUAUAUCCCGGAAAGUGAAACCGGUGUACGAAGUUUCAGCGGUUGGGGUGGGCUGCCUGUGGACCAAUCGCUGAAGCUUCGUGCAC
B6: hsa-mir-770 (structured_RNA)
RNA: GGGAGAGUGCCAUUUACAAUCCUCGUGCGGUGUACGAAGUUUCAGCGCCACAUGAGCUGGGCCUCGUGGGCGCUGAAGCUUCGUGCAC
B7: hsa-mir-4459 (structured_RNA)
RNA: GGGAGGCCCAUGUACCAACUUAGUAACGGGUGUACGAAGUUUCAGCGAGGUUGCAGUGAGCCAAGAUCGUGGCUGAAGCUUCGUGCAC
B8: hsa-mir-4714 (structured_RNA)
RNA: GGGACUACUUAGGACGCAUUGUGCGGGUGGUGUACGAAGUUUCAGCUUGAUGUCAGAAUGAGGUGUACCAAGCUGAAGCUUCGUGCAC
B9: hsa-mir-3133 (structured_RNA)
RNA: GGGACAGCGUAGAGUGGUCCAAUUCAUGGGUGUACGAAGUUUCAGCCAAUAGUAAAAAGACAACCUGUUGGCUGAAGCUUCGUGCAC
B10: hsa-mir-668 (structured_RNA)
RNA: GGGACAAUAAACCGGAUUCGAAAAGCGAGGUGUACGAAGUUUCAGCAGCAUGCACUUAAUGUGGGUGUAUGUGCUGAAGCUUCGUGCAC
B11: hsa-mir-4303 (structured_RNA)
RNA: GGGAAAGAACGCCGUCGUUUCAUACCUGGGUGUACGAAGUUUCAGCCAGCUUGCUCUGCUUUGCUGAAGCUUCGUGCAC
B12: hsa-mir-326 (structured_RNA)
RNA: GGGCAUGUGGGUCUCACUCAUAGCGUACGGUGUACGAAGUUUCAGCAAGGCGGGUGGUGCUCAGAUCGCCUGCUGAAGCUUCGUGCAC

Tests used:
Assay in all cases: FOREST: bead pull-down of RNA structure library v1, barcode microarray; U1A/LIN28A: 20 mM HEPES pH 7.5, 80 mM KCl, 20 mM NaCl, 10% glycerol, 2 mM DTT, 0.1 ug/uL BSA, 4 C; BG4/CIRBP/DHX36: 10 mM Tris-HCl pH 7.5, 100 mM KCl (or LiCl),; high values mean tight binding
U1A = U1A (Homo sapiens, UniProt P09012)
LIN28A = biological target: T1, LIN28A
CIRBP = biological target: T2, CIRBP
DHX36 = biological target: T3, DHX36

Binder | binding signal (U1A) [z-score] | binding signal (LIN28A) [z-score] | binding signal (CIRBP) [z-score] | binding signal (DHX36) [z-score]
B1 | 0.402 | -1.52 | -0.84 | -0.855
B2 | 0.402 | -1.3 | -0.688 | -0.975
B3 | 0.401 | -0.94 | -1.6 | -0.051
B4 | 0.4 | 0.198 | -1.11 | -0.706
B5 | 0.4 | 0.73 | 0.375 | 1.33
B6 | 0.398 | 0.0505 | -0.275 | 0.228
B7 | 0.397 | 1.76 | 0.218 | 0.229
B8 | 0.397 | 0.613 | -1.34 | -0.14
B9 | 0.396 | 0.677 | -0.962 | -0.685
B10 | 0.394 | -0.749 | 0.344 | -0.31
B11 | 0.392 | -0.692 | -0.17 | -0.309
B12 | 0.391 | -0.0775 | -0.796 | 1.59
